The numbers were not newly measured in patent US8415362B2, “Pyrazolyl substituted pyrrolo[2,3-b]pyrimidines as Janus kinase inhibitors” (Incyte Corporation, priority 2005, dated 2013), which cites them from elsewhere.

The conditions of this data set: some patients.

Regarding “Erbitux: "new targeted anti-cancer agents such as Iressa, Erbitux, and Tarceva"”, the acneiform rash result is recorded as “induced acneiform rash”.
